Measured values: US20240074473A1, “METHOD FOR INDUCING HYPERTROPHIC MUSCLE FIBERS FOR INDUSTRIAL MEAT PRODUCTION” (Yeda Research and Development Co. Ltd., priority 2021, published 2024)

Key:
[1] = Risk categorization of cell culture media ingredients
Text: Category 1: These cell culture media components are food ingredients/additives that are GRAS or permitted by federal regulation without limitation on use. Exemplary compounds in this category include innocuous ingredients such as sugars, pH buffers, water soluble vitamins, and common antioxidants such as tocopherols.
Category 2: These cell culture media components are common dietary nutrients and are anticipated to have GRAS status for food use or be permitted by regulation for addition to food. Examples of such compounds include most of the inorganic salts and macronutrients that are present within the cell culture media. […] Majority of nutrients present within the poultry cell-based meat may be readily measured using common validated methods for food composition testing. Batch analyses of multiple lots of the finished product may be obtained to validate the above assumptions. In some instances, consideration of established safe levels (e.g., ADI, UL) derived from a relevant authoritative body (e.g., U.S. FDA, EFSA, JECFA, FSANZ, U.S. EPA) may be leveraged to support safety. If comparisons of anticipated dietary intakes relative to an authoritative reference intake value is used, consideration of additive intakes from all dietary sources may be considered. In the absence of an authoritative reference intake value, published NOAELs from animal toxicology studies may be used to evaluate safety using standard scientific procedures for food safety evaluation. A margin of exposure (MoE) of 100-fold or greater between the NOAEL and estimated dietary intakes from food exposures is typically considered adequate to support safety. in situations where the MoE is <100-fold, additional measures for further reduction of the media component may be necessary, or further characterization of intraspecies/interspecies differences in metabolism may be necessary. These situations also require careful consideration of the regulatory status on a case-by basis (e.g., premarket approval as a food additive or GRAS evaluation required).
For example, situations where the compound is not detectable in finished product or is present at equivalent levels in comparator foods, compounds that are thermo-labile and will be digested during cooking, and/or compounds that are expected to be digested to innocuous compounds following ingestion. […] For Category 3 substances a final consideration in the safety assessment process may involve hazard characterization of the potential for a substance to produce toxic biological effects outside of the endpoints measured in a sub-chronic rat toxicity study. […] Considerations for allergenicity, biological effects in humans (e.g., effects on blood pressure), and synergistic effects with other media components also may be evaluated. […]

[2] = cited from earlier work; for Safe Reference Level for Human Dietary Intake: Iron UL: as iron
[3] = Maximum estimated dietary exposure to media ingredients per 100 g serving; settings: assumption of complete transfer of media components to the finished product on a wt/wt basis
[4] = cell culture media ingredient used during meat production

Substance	Risk Assessment Category [1, 4]	Safe Reference Level for Human Dietary Intake: Iron UL [2]	Risk Assessment Category [1]	Safe Reference Level for Human Dietary Intake: Nitrate ADI (Acceptable Daily Intake) ([2]; as nitrate)	Maximum Estimated Exposure per 100 g serving [3] [mg]
FERRIC AMMONIUM CITRATE	2	Iron UL = 40 to 45 mg			
FERRIC CITRATE	2				
FERRIC NITRATE-9H2O		Iron UL = 40 to 45 mg;	3	Nitrate ADI = 3.7 mg/kg bw/day	0.3
SODIUM PHOSPHATE DIBASIC-ANHY	1				4300

Read-outs that look alike come from different tables or passages of the source.
